Laboratory results as given in publication PMC3745031 (Bioorganic & medicinal chemistry letters, 2012).

Test system: HDAC1, HDAC3, and HDAC6
Experiment: Isoform preference across HDAC1, HDAC3 and HDAC6
Type: biochemical
Conditions: 125 nM

O=C(CCCCCCC(=O)Nc1ccccc1)NO [SAHA, Suberoylanilide hydroxamic acid]
isoform preference in single-concentration screen: roughly equal inhibition against HDAC1, HDAC3, and HDAC6
